The results in this text go back to US20140107051A1, “ISOFLAVONES FOR TREATING MUCOPOLYSACCHARIDOSES” (INSTYTUT FARMACEUTYCZNY, priority 2005, published 2014).

Molecules are shown by their SMILES.

This data set is described as follows: in vitro.

For the molecule `O=c1c(-c2ccc(O)cc2)coc2cc(O)cc(O)c12` [Genistein, 4′,5,7-trihydroxy-3-phenylchromen-4-on, reference compound], the CC50 at 48 h is above 100 µM.
